Target: Renin (Homo sapiens, UniProt P00797)
Test: Inhibition of recombinant human renin using Arg-Glu(EDANS)-Ile-His-Pro-Phe-His-Leu-Val-Ile-His-Thr-Lys(DABCYL)-Arg as substrate incubated for 10 mins prior to substrate addition measured after 90 mins by fluorimetric analysis

Chains of the proteins cited; added tags and fusions are not shown. Lines headed by an entry give the natural chain unless they say otherwise; changes in a name come on top.
UniProt P00797: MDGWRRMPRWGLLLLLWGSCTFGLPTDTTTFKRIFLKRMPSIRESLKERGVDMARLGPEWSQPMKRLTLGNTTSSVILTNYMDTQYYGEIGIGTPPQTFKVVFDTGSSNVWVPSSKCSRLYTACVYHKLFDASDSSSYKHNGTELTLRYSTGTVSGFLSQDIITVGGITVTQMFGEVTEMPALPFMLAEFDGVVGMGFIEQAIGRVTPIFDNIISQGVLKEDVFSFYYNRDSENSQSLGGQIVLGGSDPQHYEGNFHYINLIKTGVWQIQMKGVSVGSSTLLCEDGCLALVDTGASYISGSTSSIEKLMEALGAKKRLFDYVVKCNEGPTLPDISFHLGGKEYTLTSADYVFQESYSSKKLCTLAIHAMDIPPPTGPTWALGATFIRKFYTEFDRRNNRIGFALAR

IC50: 7.7 nM
SMILES: CC(C)CCNC(=O)[C@@H]1CNC[C@H](N2CC(=O)N(c3ccccc3Cl)CC2(C)C)C1

Reference: ChEMBL document CHEMBL2203232, “Design and discovery of new (3S,5R)-5-[4-(2-chlorophenyl)-2,2-dimethyl-5-oxopiperazin-1-yl]piperidine-3-carboxamides as potent renin inhibitors” (Bioorg Med Chem Lett, 2012)
